Assay: Lipophilicity relative to human insulin (k′rel) by isocratic RP-HPLC
Type: physicochemical
Conditions: LiChrosorb RP18 HPLC column, isocratic elution at 40° C., pH 7.3
Experimental: Void time, t0, was found by injecting 0.1 mM sodium nitrate.

(N(1-carboxytridecyl)-2-amidosuccinyl)-Phe^αB1 des(B30) human insulin [Example 6]
Relative lipophilicity, k′rel: 140
